# Source: patent US8487108B2, “Piperidinyl carbamate intermediates for the synthesis of aspartic protease inhibitors” (Vitae Pharmaceuticals, Inc., priority 2005, dated 2013)
# Protein sequences, listed by entry. Tags and fused reporters are not part of them. Residues count along the entry.
# UniProt P00797, 67-406 limits assumed: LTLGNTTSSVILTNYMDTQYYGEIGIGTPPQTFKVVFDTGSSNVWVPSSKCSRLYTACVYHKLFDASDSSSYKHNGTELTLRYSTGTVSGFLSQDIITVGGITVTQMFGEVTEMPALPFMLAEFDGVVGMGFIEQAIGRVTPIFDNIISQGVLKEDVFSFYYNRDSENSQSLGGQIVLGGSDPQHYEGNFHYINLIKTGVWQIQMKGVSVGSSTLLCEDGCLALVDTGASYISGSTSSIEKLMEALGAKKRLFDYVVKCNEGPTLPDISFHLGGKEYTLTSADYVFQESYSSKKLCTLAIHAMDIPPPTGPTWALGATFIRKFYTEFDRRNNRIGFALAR
# Target: trypsin-activated recombinant human renin (Homo sapiens, UniProt P00797)
# Assay: Renin fluorescence assay (internally quenched peptide substrate)
# Type: biochemical
# Conditions: compounds I*
# Experimental: The sequence of this peptide corresponds to the sequence of human angiotensinogen. The following test protocol can be used. All reactions are carried out in a flat bottom white opaque microtiter plate. A 4 μL aliquot of 400 μM renin substrate (DABCYL-γ-[…]) in 192 μL assay buffer (50 mM BES, 150 mM NaCl, 0.25 mg/mL bovine serum albumin, pH7.0) is added to 4 μL of test compound in DMSO at various concentrations ranging from 10 μM to 1 nM final concentrations. Next, 100 μL of trypsin-activated recombinant human renin (final enzyme concentration of 0.2-2 nM) in assay buffer is added, and the solution is mixed by pipetting. The increase in fluorescence at 495 nm (excitation at 340 nm) is measured for 60-360 minutes at rt using a Perkin-Elmer Fusion microplate reader. The slope of a linear portion of the plot of fluorescence-increase as a function of time is then determined, and the rate is used for calculating percent inhibition in relation to uninhibited control. […] The IC50 is defined as the concentration of a particular inhibitor that reduces the formation of product by 50% relative to a control sample containing no inhibitor. […] (Wang G. T. et al. Anal. Biochem. 1993, 210, 351; Nakamura, N. et al. J. Biochem. (Tokyo) 1991, 109, 741; Murakami, K. et al. Anal Biochem. 1981, 110, 232).
row,SMILES,IC50
1,CNC[C@H](CC1CCCCC1)NC(=O)N1CCO[C@@H]([C@@H](OCCNC(=O)OC)c2cccc(Cl)c2)C1,< 10 nM
2,CNC[C@H](CC1CCCCC1)NC(=O)N1CCC[C@@H]([C@@H](OCCNC(=NC#N)NC)c2cccc(Cl)c2)C1,> 50 nM
